Consider 2 compounds from US8551984B2, “Aminopyrimidines as SYK inhibitors” (Merck Sharp & Dohme Corp., priority 2009, dated 2013).

SMILES strings stand for the structures. Read-outs that look alike come from different tables or passages of the source.

In this experiment the target is recombinant human SYK (GST-hSYK fusion protein) (Homo sapiens, UniProt P43405).

The IC50 is the concentration at which inhibition is half-maximal. With `COC(=O)C1CCC(C(=O)N2CCC(O)(c3ncc(-c4cc(C)cc(Nc5nccc(C(F)(F)F)n5)c4)s3)CC2)CC1` (centres unmarked), the IC50 (tested form: formate) is less than 100 nM.

With `Cc1cc(Nc2nccc(C(F)(F)F)n2)cc(-c2cnc(C3(O)CCN(C(=O)Nc4ccc(C#N)cc4)CC3)s2)c1`, the IC50 was less than 100 nM.
